In paper PMC11208427, “Magnesium enhances aurintricarboxylic acid’s inhibitory action on the plasma membrane Ca^2+-ATPase” (Scientific Reports, 2024):

Substrate: Nc1ncnc2c1ncn2[C@@H]1O[C@H](COP(=O)(O)OP(=O)(O)OP(=O)(O)O)[C@@H](O)[C@H]1O
Assay: Ca2+-ATPase activity versus ATP concentration (apparent affinity KATP without ATA)
Type: biochemical, Homo sapiens
Details: Mg2+ catalytic (high affinity) and regulatory (low affinity) ATP sites; overall value

B1: plasma membrane Ca2+-ATPase (PMCA), 90% PMCA4b (Homo sapiens) (protein)
chain: MTNPSDRVLPANSMAESREGDFGCTVMELRKLMELRSRDALTQINVHYGGVQNLCSRLKTSPVEGLSGNPADLEKRRQVFGHNVIPPKKPKTFLELVWEALQDVTLIILEIAAIISLVLSFYRPAGEENELCGQVATTPEDENEAQAGWIEGAAILFSVIIVVLVTAFNDWSKEKQFRGLQCRIEQEQKFSIIRNGQLIQLPVAEIVVGDIAQVKYGDLLPADGILIQGNDLKIDESSLTGESDHVKKSLDKDPMLLSGTHVMEGSGRMVVTAVGVNSQTGIILTLLGVNEDDEGEKKKKGKKQGVPENRNKAKTQDGVALEIQPLNSQEGIDNEEKDKKAVKVPKKEKSVLQGKLTRLAVQIGKAGLLMSALTVFILILYFVIDNFVINRRPWLPECTPIYIQYFVKFFIIGITVLVVAVPEGLPLAVTISLAYSVKKMMKDNNLVRHLDACETMGNATAICSDKTGTLTMNRMTVVQAYIGGIHYRQIPSPDVFLPKVLDLIVNGISINSAYTSKILPPEKEGGLPRQVGNKTECALLGFVTDLKQDYQAVRNEVPEEKLYKVYTFNSVRKSMSTVIRNPNGGFRMYSKGASEIILRKCNRILDRKGEAVPFKNKDRDDMVRTVIEPMACDGLRTICIAYRDFDDTEPSWDNENEILTELTCIAVVGIEDPVRPEVPDAIAKCKQAGITVRMVTGDNINTARAIATKCGILTPGDDFLCLEGKEFNRLIRNEKGEVEQEKLDKIWPKLRVLARSSPTDKHTLVKGIIDSTVGEHRQVVAVTGDGTNDGPALKKADVGFAMGIAGTDVAKEASDIILTDDNFTSIVKAVMWGRNVYDSISKFLQFQLTVNVVAVIVAFTGACITQDSPLKAVQMLWVNLIMDTFASLALATEPPTESLLKRRPYGRNKPLISRTMMKNILGHAFYQLIVIFILVFAGEKFFDIDSGRKAPLHSPPSQHYTIVFNTFVLMQLFNEINSRKIHGEKNVFSGIYRNIIFCSVVLGTFICQIFIVEFGGKPFSCTSLSLSQWLWCLFIGIGELLWGQFISAIPTRSLKFLKEAGHGTTKEEITKDAEGLDEIDHAEMELRRGQILWFRGLNRIQTQIKVVKAFHSSLHESIQKPYNQKSIHSFMTHPEFAIEEELPRTPLLDEEEEENPDKASKFGTRVLLLDGEVTPYANTNNNAVDCNQVQLPQSDSSLQSLETSV
Km: 215.9 µM
